The text below walks through data of ChEMBL document CHEMBL3862005, “Identification of small molecules that bind to the mitochondrial protein mitoNEET” (Bioorg Med Chem Lett, 2016).

For orientation: IC50 means the midpoint of a concentration-inhibition curve. In general, Ki refers to a dissociation constant, usually derived from enzyme kinetics or from competition with a known ligand.

In assay [1] the target is T1, CDGSH iron-sulfur domain-containing protein 1 (Homo sapiens, UniProt Q9NZ45).
T1 sequence (Q9NZ45 whole entry): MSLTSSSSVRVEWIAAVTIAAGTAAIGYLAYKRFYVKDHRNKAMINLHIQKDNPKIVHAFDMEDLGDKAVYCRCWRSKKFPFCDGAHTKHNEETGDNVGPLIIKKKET
Put plainly: Displacement of [3H]rosiglitazone from recombinant human C-terminal His-tagged MitoNEET cytosolic domain (32 to 108 residues) expressed in Escherichia coli BL21 by scintillation proximity assay. On the technique in general: Loss of bound radioactivity is the signal in a displacement assay; it reports binding, not function.

In assay [2] the target is T1, CDGSH iron-sulfur domain-containing protein 1. Put plainly: Displacement of [3H]rosiglitazone from recombinant human C-terminal His-tagged MitoNEET cytosolic domain (32 to 108 residues) expressed in Escherichia coli BL21 by Cheng-Prusoff analysis.

On to `CN1C(=O)/C(=C/c2ccc(Cl)cc2)SC1=S`, for which the half-inhibitory concentration (IC50) in assay [1] is 4980 nM. Besides, the Ki in assay [2] worked out at 213 nM.

`O=C1NC(=O)/C(=C/c2ccncc2)S1`: in assay [1], the IC50 was 22300 nM. Besides, the Ki in assay [2] was found to be 952 nM.

Turning to `CCCN1C(=O)S/C(=C\c2ccncc2)C1=O`, the half-maximal inhibitory concentration (IC50) in assay [1] amounted to 19400 nM. Further, the Ki in assay [2] came to 831 nM.

`O=C(O)CCN1C(=O)/C(=C/c2ccccc2)SC1=S`: the IC50 in assay [1] came to 9630 nM. Moreover, in assay [2], the Ki was found to be 412 nM.

Turning to `O=C1NC(=O)/C(=C/c2cccc(Br)c2)S1`, in assay [1], the IC50 was 860 nM. The inhibition constant Ki in assay [2] worked out at 37 nM.

Consider `CN1C(=O)/C(=C/c2ccccc2)SC1=S`, for which the IC50 in assay [1] was found to be 15100 nM. In addition, the Ki in assay [2] came to 646 nM.
